From patent US6242601A, “Heterocyclic sulfamides” (Hoffman-La Roche Inc., priority 1999, dated 2001)

Sequences of proteins named here, by UniProt entry; tags and fusion partners are left off. Residues count along the entry.
UniProt P26684, 21-426: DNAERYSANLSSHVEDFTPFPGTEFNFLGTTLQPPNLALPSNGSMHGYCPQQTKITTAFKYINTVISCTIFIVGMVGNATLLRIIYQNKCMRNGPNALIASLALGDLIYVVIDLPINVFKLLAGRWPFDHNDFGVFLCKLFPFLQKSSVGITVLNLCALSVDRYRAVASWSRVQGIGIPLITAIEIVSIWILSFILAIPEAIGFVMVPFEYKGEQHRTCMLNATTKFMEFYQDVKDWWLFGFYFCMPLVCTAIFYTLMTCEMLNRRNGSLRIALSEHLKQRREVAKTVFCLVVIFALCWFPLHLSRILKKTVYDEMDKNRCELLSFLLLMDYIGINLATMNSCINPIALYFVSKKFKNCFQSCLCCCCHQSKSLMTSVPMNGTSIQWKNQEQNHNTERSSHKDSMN

Biological target: T1, isolated rat aorta rings (Rattus norvegicus, UniProt P26684)
T1 construct: Rings with a length of 5 mm were cut out from the thorax aorta of adult Wistar-Kyoto rats; from tissue; host or cells: thoracic aorta of adult Wistar-Kyoto rats, endothelium removed
Experiment: Inhibition of endothelin-induced contractions in isolated rat aorta rings
Set-up: species or system adult Wistar-Kyoto rats
Conditions: contraction of rat aorta rings, no test compound; read-out: EC50 of endothelin in the absence of test compounds
Method: Rings with a length of 5 mm were cut out from the thorax aorta of adult Wistar-Kyoto rats. The endothelium was removed by lightly rubbing the internal surface. Each ring was immersed at 37° C. in 10 ml of Krebs-Henseleit solution in an isolated bath while gassing with 95% O2 and 5% CO2. The isometric stretching of the rings was measured. The rings were stretched to a pre-tension of 3 g.
The corresponding pA2 value, which is a measure of the activity of the test compound, was calculated using a computer programme according to the following equation from the "dose ratio" DR for each individual dosage-activity curve.
pA2 =log(DR-1)-log(antagonist-concentration)

## endothelin [reference compound]
  EC50: 0.3 nM
